Earlier results as cited in patent US12076312B2, “Repurposing anti-androgen therapy for COVID-19 and immunotherapy” (Wisconsin Alumni Research Foundation, priority 2021, dated 2024).

Tested on: ligand binding domain of the AR in LNCaP cells
Settings: cited from earlier work

SMILES: CNC(=O)c1ccc(N2C(=S)N(c3cnc(C#N)c(C(F)(F)F)c3)C(=O)C23CCC3)cc1F [Apalutamide]
- greater affinity for ligand binding domain of the AR compared with bicalutamide: 7- to 10 fold
